Measurements: PubChem BioAssay AID1053197 (The Scripps Research Institute Molecular Screening Center, 2014)
The entries are a selection whose mix differs from that of the whole data set. Activity calls are given as the source filed them.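 Rule for the calls: active = inhibition above a cutoff: mean of compounds within the control limits plus 3 SD of those (cut at about 17% in these data); inactive = the rest.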

Sequences of proteins named here, by UniProt entry; tags and fusion partners are left off. A change or cut given only in a name is not applied to a line headed by its entry.
UniProt Q9HAT2: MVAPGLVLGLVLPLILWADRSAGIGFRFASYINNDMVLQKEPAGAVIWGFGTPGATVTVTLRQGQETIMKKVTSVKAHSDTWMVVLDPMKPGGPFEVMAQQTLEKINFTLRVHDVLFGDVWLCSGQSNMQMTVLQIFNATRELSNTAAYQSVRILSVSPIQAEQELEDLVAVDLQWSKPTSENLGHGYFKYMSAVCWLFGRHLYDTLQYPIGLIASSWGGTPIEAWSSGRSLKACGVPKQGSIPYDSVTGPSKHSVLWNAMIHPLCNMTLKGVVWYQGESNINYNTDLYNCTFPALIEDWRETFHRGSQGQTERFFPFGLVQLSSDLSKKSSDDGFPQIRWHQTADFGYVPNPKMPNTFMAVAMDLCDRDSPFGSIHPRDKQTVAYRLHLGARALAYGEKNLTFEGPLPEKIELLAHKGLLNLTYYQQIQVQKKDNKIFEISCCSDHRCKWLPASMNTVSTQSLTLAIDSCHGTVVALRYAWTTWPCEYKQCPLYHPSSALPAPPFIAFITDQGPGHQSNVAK

Target: Sialate O-acetylesterase (Homo sapiens) (UniProt Q9HAT2)
Test: blockers of sialate O-acetylesterase activity-probe labeling – biochemical, fluorescence polarization, FP-Rh probe, 1536-well HTS, primary screen (AID 1053197);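 note: 0% = plate median of compound wells and 100% = probe without SIAE protein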
Settings: SIAE FP-Rh probe binding, at 9.66 µM, hits give high values

Row | SMILES | inhibition
1 | O=C(O)COc1ccc([As](=O)(O)O)cc1[N+](=O)[O-] | inactive: 0.82%
2 | Nc1ccccc1[As](=O)(O)c1ccccc1 | inactive: -3.57%
3 | O=P(Nc1nccs1)(Oc1ccccc1)Oc1ccccc1 | inactive: -7.13%
4 | CCOP1(=S)c2c(C)nn(CCC#N)c2N=C(c2ccccc2F)N1C (centres undefined) | inactive: -2.03%
5 | CN(C(=O)Cc1ccc(Cl)c(Cl)c1)[C@H]1CC[C@@]2(CCCO2)C[C@@H]1N1CCCC1 | inactive: -7.12%
6 | O=[N+]([O-])c1ccc2c(c1)nnn2O | inactive: 1.54%
7 | CN(C)C(=O)c1cc([N+](=O)[O-])cc2c1-c1c(cc([N+](=O)[O-])cc1[N+](=O)[O-])C2=O | inactive: -2.91%
8 | CCOP1(=S)c2c(C)nn(CCC#N)c2N=C(c2ccc(F)cc2)N1C (centres undefined) | inactive: 4.29%
9 | CN(C(=O)Cc1ccccc1)[C@@H]1CC[C@]2(CCCO2)C[C@H]1N1CCCC1 | inactive: 0.33%
10 | N#CCCN(C(=O)COC(=O)C(O)(c1ccccc1)c1ccccc1)c1ccc(F)cc1 | inactive: -1%
11 | NC(=O)Nc1ccc([As](=O)(O)O)cc1 | inactive: 5.84%
12 | Cc1cccc(OCC(=O)OC2CN3CCC2CC3)c1 (centres undefined) | inactive: -0.67%
13 | O=[As](O)(c1cccc(O)c1)c1cccc(O)c1 | inactive: -0.84%
14 | CS(=O)(=O)c1ccc(Cl)c(NC(=O)COC(=O)C(O)(c2ccccc2)c2ccccc2)c1 | inactive: -1.23%
15 | O=[As](O)(O)c1cccnc1 | inactive: -3.35%
16 | COc1cc(C(=O)NCC2(N3CCOCC3)CCCCC2)cc(Cl)c1OC(C)C | inactive: -11.6%
17 | O=C(OC1CN2CCC1CC2)c1ccc(Cl)cc1 (centres undefined) | inactive: -3.43%
18 | CCOP(=O)(Nc1cccc2ccccc12)OCC | inactive: 5.52%
19 | COc1cc(C2NCCC3(OCCO3)C2(C)C)cc(OC)c1OC (centres undefined) | inactive: 15.6%
20 | CCCOP(=S)(Nc1nc(N)cc(=O)[nH]1)OCCC | inactive: -2.86%
21 | Cc1ccc(NCCc2c([N+](=O)[O-])cc([N+](=O)[O-])cc2[N+](=O)[O-])cc1 | active: 31.8%
22 | Nc1cccc2c([As](=O)(O)O)cccc12 | active: 34.4%

Row | SMILES | inhibition
23 | CC(C)(C)C(=O)NC(Sc1ncccn1)C(Cl)(Cl)Cl (centres undefined) | inactive: 1.17%
24 | Clc1n[nH]nc1-c1nn[nH][15n]1 | inactive: -11.4%
25 | O=P1(N(CCCl)CCCl)NCCC(C(F)(F)F)O1 (centres undefined) | inactive: -8.37%
26 | CCOP(=O)(Nc1ccc(C)cn1)OCC | inactive: -9.55%
27 | CN(CCCl)Cc1cc(Cl)c(NC2=NCCN2)c(Cl)c1 | inactive: -2.37%
28 | CCOP(=O)(NC(=NC(C)c1ccccc1)NC(C)c1ccccc1)OCC (centres undefined) | inactive: 1.72%
29 | CCC1=CC2Cc3nc4ccc(Cl)cc4c(N)c3C(C1)C2 (centres undefined) | inactive: -0.78%
30 | O=P1(Nc2ccccn2)COc2ccccc2OC1 | inactive: 0.15%
31 | CC1(CBr)Cn2c(nc3ccccc3c2=O)S1 (centres undefined) | inactive: 1.12%
32 | CN(C(=O)Cc1ccc(Cl)c(Cl)c1)C1CCCC[C@@H]1N1CCCC1 (some centres undefined) | inactive: -5.46%
33 | CN(C(=O)Cc1ccc(Cl)c(Cl)c1)[C@@H]1CCCC[C@H]1N1CCCC1 | inactive: -2.62%
34 | CC(C)/C=N\N=C(\N)N[N+](=O)[O-] | inactive: 5.87%
35 | COc1ccccc1CNC(=O)COC(=O)C(O)(c1ccccc1)c1ccccc1 | inactive: 1.53%
36 | CCCC1OP(=O)(Nc2ccccc2)OCC1CC (centres undefined) | inactive: 0.07%
37 | O=C(/C=C/c1ccccc1)OC1CN2CCC1CC2 (centres undefined) | inactive: 2.07%
38 | CN(C)C1(CNC(=O)c2ccc(S(C)(=O)=O)cc2)CCCCC1 | inactive: 3.32%
39 | Cc1ccc(C(=O)OC2CN3CCC2CC3)cc1 (centres undefined) | inactive: 10.5%
40 | CC1CCC(C(C)C)C(OP(=O)(Nc2ccccn2)c2ccccc2)C1 (centres undefined) | inactive: -2.7%
41 | Cc1nn(-c2ccccc2)c2c1P(=O)(N1CCOCC1)N(C)C(c1ccccc1)=N2 (centres undefined) | inactive: -0.31%
42 | Cc1ccc(OCC(=O)OC2CN3CCC2CC3)cc1 (centres undefined) | inactive: 0.16%
43 | O=[As](O)(c1cccs1)c1cccs1 | inactive: -4.29%
44 | NS(=O)(=O)c1cccc(NC(=O)COC(=O)C(O)(c2ccccc2)c2ccccc2)c1 | inactive: -4.85%

Row | SMILES | inhibition
45 | O=P1(Nc2ccc(Br)cn2)COc2ccccc2OC1 | inactive: 4.1%
46 | Nc1cccc([As](=O)(O)c2ccccc2)c1 | inactive: 3.55%
47 | O=P1(Nc2ncccn2)COc2ccccc2OC1 | inactive: -0.68%
48 | Cc1ccc(S(=O)(=O)N(CCCN)CCCc2c(C)nc(N)[nH]c2=O)cc1 | inactive: 5.48%
49 | Cc1cc(SC(NC(=O)c2ccccc2)C(Cl)(Cl)Cl)nc(C(C)C)n1 (centres undefined) | inactive: 3.4%
50 | CCCCOc1ccc(C(=O)NCC2(N3CCCCC3)CCCCC2)cc1OC | inactive: 10.9%
51 | COP(=O)(OC)N1CC1c1ccccc1 (centres undefined) | inactive: 6.19%
52 | CC1CCNP(=O)(N(CCCl)CCCl)O1 (centres undefined) | inactive: -0.57%
53 | O=C(O)C(O)c1ccc(N(CCCl)CCCl)cc1 (centres undefined) | inactive: -2.41%
54 | CCOC(=O)Nc1ccc([As](=O)(O)O)c(O)c1 | inactive: 7.88%
55 | O=[N+]([O-])c1ccc(Nc2ccc(Oc3ccc([N+](=O)[O-])cc3[N+](=O)[O-])cc2)c([N+](=O)[O-])c1 | inactive: -5.49%
56 | Cc1cc(SC(NC=O)C(Cl)(Cl)Cl)ncn1 (centres undefined) | inactive: 2.97%
57 | O=P(Nc1ccccn1)(c1cccc2ccccc12)c1cccc2ccccc12 | inactive: -6.35%
58 | CCOC(=O)Nc1cccc([As](=O)(O)O)c1 | inactive: 2.87%
59 | O=C(Nc1ccncc1[N+](=O)[O-])c1ccc([N+](=O)[O-])cc1[N+](=O)[O-] | inactive: 1.18%
60 | O=C(COc1ccccc1)OC1CN2CCC1CC2 (centres undefined) | inactive: -4.99%
61 | O=C(O)C(=O)c1ccc(N(CCCl)CCCl)cc1 | inactive: -1.21%
62 | COC(=O)C1(C)COP(=O)(N2CCCC2)OC1 (centres undefined) | inactive: -1%
63 | COP1(=S)c2c(C)nn(CCC#N)c2N=C(c2ccc(F)cc2)N1C (centres undefined) | inactive: 15.9%
64 | CCC(C)N(CC(C)C)C(=S)SC(NC(C)=O)C(Cl)(Cl)Cl (centres undefined) | inactive: -4.77%
